Measurements taken from ChEMBL document CHEMBL1201862, “PubChem BioAssay data set” (2004).
The list shows a part of the results. Cut-off read from the data, not from the text of the source: active = GI50 up to about 1.1 µM and inactive = higher. Measured potencies and affinities stand elsewhere. Only a part of the results of these assays is listed, not drawn at random. Some results for these compounds are left out of this collection, so the calls shown say nothing about other tests.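 Five concentrations, 48 hours, 96-well plates. GI50 = concentration required for 50% inhibition of growth.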

System: UO-31
Assay: NCI tumour cell line growth inhibition, 48 h

## CC/C=C\C(O)(C(=O)OC1CN2CCC1CC2)C1CCCC1 (stereo unspecified)
  GI50: active: 10 nM
